{"source": "ChEMBL document CHEMBL3244195", "about": "“Antidotes or organophosphate poisoning. 2. Thiadiazole-5-carboxaldoximes” (1979)", "key": {"[1]": {"experiment": "Dissociation constant, pKa of the compound"}, "Blood [2]": {"tested_on": "Blood", "experiment": "Drug level in WAG rat blood at 100 mg/kg, po after 15 mins", "settings": "in vivo, 0.25 h, strain WAG"}, "Blood [3]": {"tested_on": "Blood", "experiment": "Drug level in hybrid CC57 mouse blood at 100 mg/kg, po after 15 mins", "settings": "in vivo, 0.25 h, strain CC57, Blood"}, "Blood [4]": {"tested_on": "Blood", "experiment": "Drug level in WAG rat blood at 100 mg/kg, po after 60 mins", "settings": "in vivo, 1 h, strain WAG"}, "Blood [5]": {"tested_on": "Blood", "experiment": "Drug level in hybrid CC57 mouse blood at 100 mg/kg, po after 60 mins", "settings": "in vivo, 1 h, strain CC57, Blood"}, "Blood [6]": {"tested_on": "Blood", "experiment": "Drug level in hybrid CC57 mouse blood at 100 mg/kg, po after 30 mins", "settings": "in vivo, 0.5 h, strain CC57, Blood"}, "Blood [7]": {"tested_on": "Blood", "experiment": "Drug level in WAG rat blood at 100 mg/kg, po after 30 mins", "settings": "in vivo, 0.5 h, strain WAG"}, "Cavia porcellus [8]": {"tested_on": "Cavia porcellus", "experiment": "Half life in guinea pig blood at 25 mg/kg, iv by spectrophotometric analysis", "settings": "in vivo"}, "[9]": {"experiment": "Half life in goat blood at 25 mg/kg, iv by spectrophotometric analysis", "settings": "in vivo"}, "Rattus norvegicus [10]": {"tested_on": "Rattus norvegicus", "experiment": "Half life in WAG rat blood at 25 mg/kg, iv by spectrophotometric analysis", "settings": "in vivo, strain WAG"}, "Oryctolagus cuniculus [11]": {"tested_on": "Oryctolagus cuniculus", "experiment": "Half life in Flemish Giant rabbit blood at 25 mg/kg, iv by spectrophotometric analysis", "settings": "in vivo, strain Flemish Giant"}, "Mus musculus [12]": {"tested_on": "Mus musculus", "experiment": "Half life in hybrid CC57 mouse blood at 25 mg/kg, iv by spectrophotometric analysis", "settings": "in vivo, strain CC57, Blood"}, "Oryctolagus cuniculus [13]": {"tested_on": "Oryctolagus cuniculus", "experiment": "Half life in Flemish Giant rabbit blood at 100 mg/kg, iv by spectrophotometric analysis", "settings": "in vivo, strain Flemish Giant"}, "Rattus norvegicus [14]": {"tested_on": "Rattus norvegicus", "experiment": "Half life in WAG rat blood at 50 mg/kg, iv by spectrophotometric analysis", "settings": "in vivo, strain WAG"}, "Rattus norvegicus [15]": {"tested_on": "Rattus norvegicus", "experiment": "Toxicity in WAG rat assessed as mortality at 400 mg/kg, ip after 24 hrs", "settings": "in vivo"}, "Mus musculus [16]": {"tested_on": "Mus musculus", "experiment": "Toxicity in ip dosed hybrid CC57 mouse after 24 hrs", "settings": "in vivo"}, "Rattus norvegicus [17]": {"tested_on": "Rattus norvegicus", "experiment": "Elimination half life in WAG rat at 100 mg/kg, po", "settings": "in vivo"}, "[18]": {"experiment": "Solubility of the compound in water", "settings": "buffer"}, "Oryctolagus cuniculus [19]": {"tested_on": "Oryctolagus cuniculus", "experiment": "Half life in Flemish Giant rabbit blood at 50 mg/kg, iv by spectrophotometric analysis", "settings": "in vivo, strain Flemish Giant"}, "Mus musculus [20]": {"tested_on": "Mus musculus", "experiment": "Half life in hybrid CC57 mouse blood at 50 mg/kg, iv by spectrophotometric analysis", "settings": "in vivo, strain CC57, Blood"}, "[21]": {"experiment": "Half life in goat blood at 50 mg/kg, iv by spectrophotometric analysis", "settings": "in vivo"}, "Cavia porcellus [22]": {"tested_on": "Cavia porcellus", "experiment": "Half life in guinea pig blood at 50 mg/kg, iv by spectrophotometric analysis", "settings": "in vivo"}, "[23]": {"experiment": "Drug excretion in Flemish Giant rabbit urine assessed as unchanged compound level at 125 mg/kg, iv after 24 hrs by RP-HPLC analysis", "settings": "in vivo, strain Flemish Giant"}, "[24]": {"experiment": "Drug metabolism in Flemish Giant rabbit urine at 125 mg/kg, iv after 24 hrs by mass spectrometric analysis", "settings": "in vivo, strain Flemish Giant"}, "Mus musculus [25]": {"tested_on": "Mus musculus", "experiment": "Elimination half life in hybrid CC57 mouse at 100 mg/kg, po", "settings": "in vivo"}, "Rattus norvegicus [26]": {"tested_on": "Rattus norvegicus", "experiment": "Half life in WAG rat blood at 50 mg/kg, iv by HPLC analysis", "settings": "in vivo, strain WAG"}, "[27]": {"experiment": "Dissociation constant, pKa of the compound in 0.1 M aqueous KCl at 25 degC by potentiometric titration analysis", "settings": "buffer"}, "Mus musculus [28]": {"tested_on": "Mus musculus", "experiment": "Toxicity in hybrid CC57 mouse assessed as mortality at 1000 mg/kg, ip after 24 hrs", "settings": "in vivo"}}}
{"smiles": "O/N=C/C(F)(F)F", "values": [{"measurement": "pKa", "setting": "[1]", "value": 8.9}]}
{"smiles": "CS(=O)(=O)[O-].C[n+]1ccccc1C=NO", "values": [{"measurement": "Drug uptake", "setting": "Blood [2]", "value": 1600, "unit": "ng/mL"}, {"measurement": "Drug uptake", "setting": "Blood [3]", "value": 3200, "unit": "ng/mL"}, {"measurement": "Drug uptake", "setting": "Blood [4]", "value": 4100, "unit": "ng/mL"}, {"measurement": "Drug uptake", "setting": "Blood [5]", "value": 4500, "unit": "ng/mL"}, {"measurement": "Drug uptake", "setting": "Blood [6]", "value": 4800, "unit": "ng/mL"}, {"measurement": "Drug uptake", "setting": "Blood [7]", "value": 3900, "unit": "ng/mL"}]}
{"smiles": "O/N=C/c1cc[n+](COC[n+]2ccc(/C=N/O)cc2)cc1.[Cl-].[Cl-]", "values": [{"measurement": "t1/2", "setting": "Cavia porcellus [8]", "value": 25, "unit": "min"}, {"measurement": "t1/2", "setting": "[9]", "value": 39.9, "unit": "min"}, {"measurement": "t1/2", "setting": "Rattus norvegicus [10]", "value": 15.4, "unit": "min"}, {"measurement": "t1/2", "setting": "Oryctolagus cuniculus [11]", "value": 32.3, "unit": "min"}, {"measurement": "t1/2", "setting": "Mus musculus [12]", "value": 9.5, "unit": "min"}]}
{"smiles": "[Na+].[O-]/N=C/c1cnns1", "values": [{"measurement": "Drug uptake", "setting": "Blood [2]", "value": 22900, "unit": "ng/mL"}, {"measurement": "Drug uptake", "setting": "Blood [3]", "value": 31100, "unit": "ng/mL"}, {"measurement": "t1/2", "setting": "Oryctolagus cuniculus [13]", "value": 24.4, "unit": "min"}, {"measurement": "t1/2", "setting": "Rattus norvegicus [14]", "value": 19.9, "unit": "min"}, {"measurement": "Activity", "setting": "Rattus norvegicus [15]", "value": "Non-toxic"}, {"measurement": "LD50", "setting": "Mus musculus [16]", "value": 1250, "unit": "mg/kg"}, {"measurement": "beta t1/2", "setting": "Rattus norvegicus [17]", "value": 21, "unit": "min"}, {"measurement": "solubility", "setting": "[18]", "value": "soluble"}, {"measurement": "Drug uptake", "setting": "Blood [4]", "value": 8400, "unit": "ng/mL"}, {"measurement": "t1/2", "setting": "Oryctolagus cuniculus [19]", "value": 26.2, "unit": "min"}, {"measurement": "Drug uptake", "setting": "Blood [5]", "value": 6900, "unit": "ng/mL"}, {"measurement": "t1/2", "setting": "Mus musculus [20]", "value": 9.5, "unit": "min"}, {"measurement": "t1/2", "setting": "[21]", "value": 38.6, "unit": "min"}, {"measurement": "t1/2", "setting": "Cavia porcellus [22]", "value": 20.9, "unit": "min"}, {"measurement": "Drug uptake", "setting": "Blood [6]", "value": 23600, "unit": "ng/mL"}, {"measurement": "Drug excretion", "setting": "[23]", "value": 0.2, "unit": "%"}, {"measurement": "Drug metabolism", "setting": "[24]", "value": "metabolite_detected"}, {"measurement": "beta t1/2", "setting": "Mus musculus [25]", "value": 21, "unit": "min"}, {"measurement": "t1/2", "setting": "Rattus norvegicus [26]", "value": 19.6, "unit": "min"}, {"measurement": "Drug uptake", "setting": "Blood [7]", "value": 22100, "unit": "ng/mL"}]}
{"smiles": "Cc1nsc(/C=N/O)n1", "values": [{"measurement": "pKa", "setting": "[27]", "value": 6.97}]}
{"smiles": "Cc1nnc(/C=N/O)s1", "values": [{"measurement": "pKa", "setting": "[27]", "value": 8.4}]}
{"smiles": "Cc1nsc(/C=N/[O-])n1.[Na+]", "values": [{"measurement": "Activity", "setting": "Mus musculus [28]", "value": "Non-toxic"}, {"measurement": "t1/2", "setting": "Rattus norvegicus [14]", "value": 7.7, "unit": "min"}, {"measurement": "solubility", "setting": "[18]", "value": "soluble"}, {"measurement": "t1/2", "setting": "Oryctolagus cuniculus [19]", "value": 13.9, "unit": "min"}, {"measurement": "t1/2", "setting": "Mus musculus [20]", "value": 7, "unit": "min"}]}
{"smiles": "O/N=C/c1ccns1", "values": [{"measurement": "pKa", "setting": "[1]", "value": 8.6}]}
{"smiles": "O/N=C/c1cnns1", "values": [{"measurement": "pKa", "setting": "[27]", "value": 7.64}]}
{"smiles": "Cc1nnc(/C=N/[O-])s1.[Na+]", "values": [{"measurement": "Activity", "setting": "Mus musculus [28]", "value": "Non-toxic"}, {"measurement": "t1/2", "setting": "Rattus norvegicus [14]", "value": 17, "unit": "min"}, {"measurement": "solubility", "setting": "[18]", "value": "soluble"}, {"measurement": "t1/2", "setting": "Oryctolagus cuniculus [19]", "value": 27.7, "unit": "min"}, {"measurement": "t1/2", "setting": "Mus musculus [20]", "value": 10.4, "unit": "min"}]}
